Molecular target: T1, farnesyl protein transferase (FPT) (Rattus norvegicus, UniProt Q02293+Q04631)
T1 construct: were partially purified from rat brain by ammonium sulfate fractionation; from tissue; host or cells: rat brain (ammonium sulfate fractionation, Q-Sepharose)
Assay: In vitro enzyme assay: inhibition of farnesyl protein transferase (FPT), [3H]farnesyl transfer to Ras-CVLS
Format: biochemical
Conditions: Table 1; Ras-CVLS substrate, 30 minutes at room temperature
Description: 1. In vitro enzyme assays:
Inhibition of farnesyl protein transferase and geranylgeranyl protein transferase.
Human farnesyl protein transferase was also expressed in E. coli, using cDNA clones encoding both the a and b subunits. […] Human farnesyl protein transferase was partially-purified from the soluble protein fraction of E. coli as described above. […] Two forms of val^12 -Ha-Ras protein were prepared as substrates for these enzymes, differing in their carboxy terminal sequence. One form terminated in cysteine-valine-leucine-serine (Ras-CVLS) the other in cystein-valine-leucine-leucine (Ras-CVLL). Ras-CVLS is a substrate for the farnesyl protein transferase while Ras-CVLL is a substrate for geranylgeranyl protein transferase I. The cDNAs encoding these proteins were constructed so that the proteins contain an amino-terminal extension of 6 histidine residues. Both proteins were expressed in Escherichia coli and purified using metal chelate affinity chromatography. The radiolabelled isoprenyl pyrophosphate substrates, [^3 H]farnesyl pyrophosphate and [^3 H] geranylgeranyl pyrophosphate, were purchased from DuPont/New England Nuclear.
The reaction was allowed to proceed for 30 minutes at room temperature and then stopped with 0.5 ml of 4% sodium dodecyl sulfate (SDS) followed by 0.5 ml of cold 30% TCA. […] Percent inhibition was calculated relative to the DMSO vehicle control.

Chains of the proteins cited; added tags and fusions are not shown.
UniProt Q02293, whole entry: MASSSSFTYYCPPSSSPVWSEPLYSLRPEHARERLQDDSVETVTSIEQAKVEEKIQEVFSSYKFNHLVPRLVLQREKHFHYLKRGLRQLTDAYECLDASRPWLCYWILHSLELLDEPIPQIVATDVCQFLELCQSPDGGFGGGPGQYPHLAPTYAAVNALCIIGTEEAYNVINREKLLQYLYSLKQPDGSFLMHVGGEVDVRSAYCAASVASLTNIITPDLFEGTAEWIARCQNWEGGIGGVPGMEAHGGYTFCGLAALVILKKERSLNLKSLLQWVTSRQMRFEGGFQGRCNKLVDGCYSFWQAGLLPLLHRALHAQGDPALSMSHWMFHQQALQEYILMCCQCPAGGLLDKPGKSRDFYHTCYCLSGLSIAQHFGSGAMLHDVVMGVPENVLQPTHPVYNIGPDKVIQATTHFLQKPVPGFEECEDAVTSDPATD

Q: For `NC(=O)N1CCC(CC(=O)N2CCC([C@H]3c4ncc(Br)cc4CCc4cc(Cl)cc(Br)c43)CC2)CC1` [Example 10], which IC50 is on record?
A: Its IC50 is 1.9 nM.

— US5874442A, “Tricyclic amides useful for inhibition of G-protein function and for treatment of proliferative disease” (Schering-Plough Corporation, priority 1996, dated 1999)
